# AlphaSeq binding of Ab-14 heavy chain variants to a spike HR2 peptide

Values reported by Li et al. 2023, doi:10.1038/s41467-023-39022-2 (FLAb copy).

Binding partner: SARS-CoV-2 spike HR2 peptide, sequence PDVDLGDISGINAS.

Parent: Ab-14, a human scFv built as VH, a 15-residue (Gly4Ser)3 linker, VL. Only the CDRs of the heavy chain vary.
VH: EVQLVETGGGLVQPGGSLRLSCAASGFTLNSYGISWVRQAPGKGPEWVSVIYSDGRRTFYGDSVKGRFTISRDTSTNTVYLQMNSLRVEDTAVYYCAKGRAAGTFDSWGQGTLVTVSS
VL: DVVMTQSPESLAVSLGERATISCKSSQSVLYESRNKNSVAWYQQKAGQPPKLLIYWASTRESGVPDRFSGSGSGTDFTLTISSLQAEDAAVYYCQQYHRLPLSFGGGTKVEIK

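Phage display of a naive human antibody library on the peptide gave the parent. The variants were designed computationally from a first round of random CDR variants and then made and measured. Their group label is 14H_En_Gen (En: ensemble of fine-tuned language models; Gen: genetic algorithm). Affinity was read by AlphaSeq, a pooled yeast mating assay with surface-displayed partners. Mating (16 h, 30 °C) was followed by selection of diploids and sequencing of their barcodes. The ratio of observed to expected reads was calibrated, replicate by replicate, on BCL2-family standards whose Kd was known from biolayer interferometry. Each pool was mated in six replicate cultures.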

Variants are written as CDR1, CDR2 and CDR3 of the heavy chain (limits as in the source). Parent: GFTLNSYGIS, VIYSDGRRTFYGDSVK, GRAAGTFDS. Values are log10 of the apparent Kd in nM; lower means stronger binding. A mean of the replicates is given; it leaves out those without a signal. A pair that was not seen in that replicate is written "n.d."; this usually means weak binding, but a binder can also be missed. Of ten entries with the parent sequence, four were seen in most replicates (averages 0.34 to 2.37), three in one and three in none, so single entries are noisy. The authors averaged sequences with at least three values out of six and counted those with two or fewer as poor binders. Background: pairings of all heavy chain designs with three empty control strains gave a value in 1% of cases (median 2.08, 5th percentile 0.84). Values in that range, when seen in few replicates, are hard to tell from nonspecific mating. Also given: how often the same scFv was detected with the empty control strains, with their mean in brackets. The range of this assay differs from that of the first round, and the authors advise against merging the two.

| CDR-H1 | CDR-H2 | CDR-H3 | log10 Kd (nM) by replicate | mean, log10 nM | signal with controls |
|---|---|---|---|---|---|
| GFDLDEYGIS | VIYADGKRTAYADSVK | GEVAGTFDL | 0.53 0.02 -0.44 0.02 0.76 0.75 | 0.27 | 1/18 (0.14) |
| GFDLDEYGIS | VIYADGRRTAYADNVK | GQVAGTFDV | -0.96 n.d. 1.22 -0.08 0.19 -0.21 | 0.03 | 0/18 |
| GFDLNEYGIS | VIYADGMRTAYTDSVK | GETAGTFDT | -0.11 -0.13 -0.21 -0.12 -0.03 -0.19 | -0.13 | 0/18 |
| GFDLDEYGIS | VIYADGMRTYYADSVK | GENAGTFDV | 0.64 0.42 -0.08 n.d. 0.08 1.26 | 0.46 | 0/18 |
| GFDLNEYGIS | VIYADGMRTAYADNVK | GNNAGTFDM | 0.79 0.84 0.67 0.71 0.76 0.80 | 0.76 | 0/18 |
| GFDLDEYGIS | VIYADGKRTAYSDSVK | GETAGTFDT | 0.68 0.72 -0.14 1.39 0.74 0.29 | 0.62 | 0/18 |
| GFDLNEYGIS | VIYADGQRTAYADSVK | GQVAGTFDI | -0.46 -0.62 -0.53 -0.98 -0.74 -0.80 | -0.69 | 0/18 |
| GFDLNEYGIS | VIYADGMRTSYADSVK | GNNAGTFDI | n.d. n.d. n.d. n.d. n.d. n.d. | n.d. | 1/18 (1.88) |
| GFDLNEYGIS | VIYADGVRTAYADTVK | GNVAGTFDV | -0.51 -0.43 -0.62 -0.70 -0.54 -0.62 | -0.57 | 0/18 |
| GFDLNEYGIS | VIYADGVRTAYSDSVK | GNVAGTFDL | -0.03 -0.11 -0.01 -0.29 -0.06 -0.16 | -0.11 | 0/18 |
| GFDLNEYGIS | VIYADGMRTAYIDSVK | GNNAGTFDQ | -0.19 -0.16 -0.70 -0.50 -0.72 -0.38 | -0.44 | 0/18 |
| GFDLNEYGIS | VIYADGMRTAYSDSVK | GQVAGTFDQ | -0.16 0.02 0.09 -0.25 0.66 -0.14 | 0.04 | 0/18 |
| GFDLDEYGIS | VIYADGKRTAYSDSVK | GENAGTFDV | 0.37 1.01 1.00 -0.76 -0.04 1.25 | 0.47 | 0/18 |
| GFDLNEYGIS | VIYADGMRTYYSDSVK | GNVAGTFDL | -0.90 -1.23 -0.56 -1.82 -1.78 -0.56 | -1.14 | 0/18 |
| GFDLNEYGIS | VIYADGMRKAYADSVK | GEVAGTFDI | -0.73 -0.44 -0.63 -0.35 -0.44 0.27 | -0.39 | 0/18 |
| GFDLNEYGIS | VIYADGKRTAYSDSVK | GSNAGTFDM | -0.41 -0.59 -0.64 -0.79 -0.49 -0.57 | -0.58 | 0/18 |
| GFDLNEYGIS | VIYADGKRTVYADSVK | GNVAGTFDQ | 1.34 0.75 1.73 0.92 1.07 0.69 | 1.08 | 0/18 |
| GFDLNEYGIS | VIYADGMRTAYADDVK | GSNAGTFDQ | -0.34 0.35 -0.57 -0.48 -0.60 -0.60 | -0.37 | 0/18 |
| GFDLEDYGIS | VIYADGQRTAYADSVK | GNVAGTFDI | n.d. n.d. n.d. n.d. n.d. n.d. | n.d. | 0/18 |
| GFDLNEYGIS | VIYADGQRTAYADDVK | GANAGTFDV | -0.31 -0.38 -0.46 -0.43 -0.39 -0.37 | -0.39 | 1/18 (2.94) |
| GFDLNEYGIS | VIYADGVRTYYADSVK | GEVAGTFDL | -0.42 -0.66 -0.83 -0.86 -0.72 -0.72 | -0.70 | 1/18 (3.22) |
| GFDLNEYGIS | VIYADGMRTAYADNVK | GEVAGTFDV | -0.89 -1.33 -2.05 -1.73 -1.50 -1.37 | -1.48 | 0/18 |
| GFDLNEYGIS | VIYADGQRTAYADSVK | GEVAGTFDI | -0.35 -0.01 -0.22 -0.41 -0.61 -0.10 | -0.28 | 0/18 |
| GFDLNEYGIS | VIYADGSRTAYVDSVK | GQNAGTFDV | n.d. n.d. n.d. n.d. n.d. n.d. | n.d. | 0/18 |
| GFDLNEYGIS | VIYADGVRKAYSDSVK | GNVAGTFDI | -0.31 -0.32 -0.16 -0.72 -0.43 -0.29 | -0.37 | 0/18 |
| GFDLNEYGIS | VIYADGVRTAYSDDVK | GNVAGTFDL | 0.15 0.22 -0.21 -0.16 0.25 0.11 | 0.06 | 1/18 (2.39) |
| GFDLNEYGIS | VIYADGMRTAYANDVK | GENAGTFDV | 0.09 -0.35 -0.24 -0.32 -0.47 0.11 | -0.20 | 1/18 (4.35) |
| GFDLNEYGIS | VIYADGKRTAYADDVK | GANAGTFDV | -0.72 -0.70 -0.85 -0.84 -0.86 -0.59 | -0.76 | 0/18 |
| GFDLNEYGIS | VIYADGMRTSYTDSVK | GENAGTFDV | 0.13 0.39 1.38 -0.39 0.18 0.07 | 0.29 | 0/18 |
| GFDLNEYGIS | VIYADGMRTVYADSVK | GQNAGTFDI | -0.34 -0.83 -0.75 -1.07 -0.90 -1.10 | -0.83 | 0/18 |
| GFDLDEYGIS | VIYADGMRTAYSDSVK | GENAGTFDA | 0.02 0.18 -0.28 -0.35 -0.30 -0.16 | -0.15 | 0/18 |
| GFDLEDYGIS | VIYADGMRTAYSDSVK | GETAGTFDV | -0.13 -0.51 -0.08 -0.47 -0.01 -0.16 | -0.23 | 0/18 |
| GFDLDEYGIS | VIYADGMRTAYADTVK | GNNAGTFDV | -0.23 -0.38 -0.21 -0.57 -0.10 -0.15 | -0.27 | 0/18 |
| GFDLNEYGIS | VIYADGMRTAYSDSVK | GENAGTFVI | n.d. n.d. n.d. 0.87 n.d. 1.34 | 1.11 | 0/18 |
| GFDLEDYGIS | VIYADGVRTAYADSVK | GNVAGTFDV | -0.41 -0.23 -0.63 -0.72 -0.59 -0.26 | -0.47 | 0/18 |
| GFDLNEYGIS | VIYADGQRTFYADSVK | GNNAGTFDI | -0.08 -0.02 -0.26 -0.40 -0.50 -0.12 | -0.23 | 0/18 |
| GFDLNEYGIS | VIYADGMRTVYADSVK | GSNAGTFDI | -0.63 -0.66 -0.94 -1.35 -1.20 -0.66 | -0.91 | 2/18 (0.87) |
| GFDLDEYGIS | VIYADGRRTAYSDSVK | GNVAGTFDQ | 0.58 n.d. n.d. n.d. n.d. n.d. | 0.58 | 0/18 |
| GFDLNEYGIS | VIYADGKRTAYIDSVK | GGNAGTFDV | -0.38 -0.61 -0.56 -0.73 -0.68 -0.55 | -0.58 | 0/18 |
| GFDLNEYGIS | VIYADGVRTAYTDSVK | GQVAGTFDV | -0.25 -0.60 -0.49 -0.85 -0.92 -0.56 | -0.61 | 0/18 |
| GFDLNEYGIS | VIYADGQRTAYSDSVK | GEVAGTFDQ | 0.27 -0.19 -0.28 -0.18 -0.63 -0.07 | -0.18 | 0/18 |
| GFDLNEYGIS | VIYADGMRTAYQDSVK | GNNAGTFDV | 0.67 0.12 -0.58 0.03 -0.21 0.21 | 0.04 | 0/18 |
| GFDLDEYGIS | VIYADGMRTAYTDSVK | GENAGTFDV | n.d. -0.19 0.10 0.81 0.11 n.d. | 0.21 | 0/18 |
| GFDLNEYGIS | VIYADGVRKAYADSVK | GNQAGTFDV | -0.51 -0.59 -0.73 -0.78 -0.56 -0.43 | -0.60 | 1/18 (2.23) |
| GFDLNEYGIS | VIYADGMRTAYADSVK | GTVAGTFDV | -0.29 -1.52 -1.14 -0.55 -0.65 1.06 | -0.52 | 0/18 |
| GFDLDEYGIS | VIYADGMRKAYADSVK | GENAGTFDL | -1.47 -1.11 -1.42 -1.72 -1.50 -1.30 | -1.42 | 0/18 |
| GFDLSEYGIS | VIYADGMRTAYADSVK | GNNAGTFDV | 0.16 -0.11 0.45 0.04 -0.04 0.04 | 0.09 | 0/18 |

Extract of 2 entries:

CDR-H1,CDR-H2,CDR-H3,log10 Kd (nM) by replicate,"mean, log10 nM",signal with controls
GFDLNEYGIS,VIYADGQRTAYADDVK,GANAGTFDV,-0.31 -0.38 -0.46 -0.43 -0.39 -0.37,-0.39,1/18 (2.94)
GFDLDEYGIS,VIYADGKRTAYADSVK,GEVAGTFDL,0.53 0.02 -0.44 0.02 0.76 0.75,0.27,1/18 (0.14)